Values quoted from earlier work, collected in publication PMC7699892, “Repositioned Drugs for Chagas Disease Unveiled via Structure-Based Drug Repositioning” (International Journal of Molecular Sciences, 2020).

Test system: T. cruzi
Set-up: method as in per drug in column Reference of Table 2; key: ? indicates unknown activity; + indicates indirect evidence of activity; ++ indicates direct evidence of activity
Conditions: class of literature evidence of trypanocidal activity; ref per drug in Table 2; cited from earlier work

O=P(O)(O)C(O)(Cc1cccnc1)P(=O)(O)O [Risedronate]
Trypan. Activity: ++
